According to ChEMBL document CHEMBL4425102, “Structure-Based Design of Tetrahydroisoquinoline-7-carboxamides as Selective Discoidin Domain Receptor 1 (DDR1) Inhibitors” (J Med Chem, 2016):

Experiment: Apparent clearance in ICR mouse at 1 mg/kg, iv measured after 5 mins to 24 hrs by HPLC/MS analysis
Format: ADME, organism-based
Details: in vivo

CL(app): 13 mL/min/kg
Compound: Cc1cn(-c2cc(NC(=O)c3ccc4c(c3)CN(c3cncnc3)C[C@@H]4C)cc(C(F)(F)F)c2)cn1
